Reference: PubChem BioAssay (NCI)
The entries are a selection whose mix differs from that of the whole data set. More than one record can exist for a structure, and the calls need not agree. Calls of active or inactive are those of the source. Rule as the data show it: active = growth inhibition above about 70%; inactive = the rest.

Legend:
[1] = NCI Yeast Anticancer Drug Screen. Data for the rad50 strain (AID 155);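 also: 0% = growth of vehicle-only cultures of the same strain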; conditions: S. cerevisiae rad50 strain growth inhibition; at 50.0 µM; stronger effect = higher value
[2] = NCI Yeast Anticancer Drug Screen. Data for the mec2-1 strain (AID 157); conditions: S. cerevisiae mec2-1 strain, at 50.0 µM, stronger effect = higher value
[3] = NCI Yeast Anticancer Drug Screen. Data for the sgs1 mgt1 strain (AID 161);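 also: 0% = growth of cultures given vehicle only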; conditions: S. cerevisiae sgs1 mgt1 strain, at 50.0 µM, stronger effect = higher value
[4] = NCI Yeast Anticancer Drug Screen. Data for the cln2 rad14 strain (AID 165);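 also: 0% = growth equal to vehicle treated cultures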; conditions: S. cerevisiae cln2 rad14 strain, at 50.0 µM, stronger effect = higher value
[5] = NCI Yeast Anticancer Drug Screen. Data for the bub3 strain (AID 167); conditions: S. cerevisiae bub3 mutant strain, at 50.0 µM, stronger effect = higher value
[6] = NCI Yeast Anticancer Drug Screen. Data for the mlh1 rad18 strain (AID 175); conditions: S. cerevisiae mlh1 rad18 strain growth inhibition; at 50.0 µM; stronger effect = higher value

Measured: growth inhibition

Clc1ccc(CNCCI)cc1Cl
inactive: [1] 16.3% | [2] -2.7% | [3] 31.9% | [4] -6.2% | [5] 21% | [6] 4.75%

CCOc1ccc(C(=O)N(CCCl)CCCl)cc1
inactive: [1] 20.8% | [2] -8.35% | [3] 13.8% | [4] -13.3% | [5] -5.1% | [6] 2.1%

ClP1(Cl)=N[P@](Cl)(N2CCOCC2)=NP(Cl)(Cl)=N[P@@](Cl)(N2CCOCC2)=N1
inactive: [1] -2.8% | [2] 16.3% | [3] 5.4% | [4] 23.6% | [5] -7.65% | [6] 2.55%

[O-]/[N+](=C/c1ccc(N(CCCl)CCCl)cc1)CCO
inactive: [1] 1.05% | [2] 22.1% | [3] -7.4% | [4] -1.25% | [5] 17.1% | [6] -4.95%

O=C(O)CCc1ccc(Oc2cc([N+](=O)[O-])c([N+](=O)[O-])c([N+](=O)[O-])c2)cc1
inactive: [1] 49.5% | [2] 6.6% | [3] 52.8% | [4] -10.6% | [5] -2.8% | [6] 26.1%

O=S(=O)(O)Oc1ccc(N(CCCl)CCCl)cc1
inactive: [1] -12.7% | [2] 7.7% | [3] -15.9% | [4] 16.7% | [5] -27% | [6] -13.2%

Nc1ncnc2nc[nH]c12
inactive: [1] 2.05% | [2] -5.3% | [3] 0.75% | [4] 6% | [5] 21.2% | [6] 3.7%

ClP1Nc2cncnc2N1 (stereo not given)
inactive: [1] -68% | [2] -22.2% | [3] -10.7% | [4] -63.6% | [5] -0.4% | [6] -16.3%

C[N+]1(CCCC[N+]2(C)CCCCCC2)CCCCCC1
inactive: [1] -9.3% | [2] -10.3% | [3] -24.7% | [4] -22.9% | [5] 14.2% | [6] -26.4%

O=[As](O)(O)c1ccc(O)cc1
inactive: [1] -13.9% | [2] -10.3% | [3] 12.6% | [4] -44.1% | [5] -21.8% | [6] -14.6%
